{"source": "patent US6855512B2", "about": "“Methods for identifying inhibitors of cytochrome P450RAI” (Allergan, Inc., priority 2000, dated 2005)", "target": "T1, P450RAI-1 (Homo sapiens, UniProt O43174)", "T1 construct": "expressed in transfected cells; host or cells: HeLa (stably transfected, hygromycin selection)", "T1 sequence (O43174 1-497)": "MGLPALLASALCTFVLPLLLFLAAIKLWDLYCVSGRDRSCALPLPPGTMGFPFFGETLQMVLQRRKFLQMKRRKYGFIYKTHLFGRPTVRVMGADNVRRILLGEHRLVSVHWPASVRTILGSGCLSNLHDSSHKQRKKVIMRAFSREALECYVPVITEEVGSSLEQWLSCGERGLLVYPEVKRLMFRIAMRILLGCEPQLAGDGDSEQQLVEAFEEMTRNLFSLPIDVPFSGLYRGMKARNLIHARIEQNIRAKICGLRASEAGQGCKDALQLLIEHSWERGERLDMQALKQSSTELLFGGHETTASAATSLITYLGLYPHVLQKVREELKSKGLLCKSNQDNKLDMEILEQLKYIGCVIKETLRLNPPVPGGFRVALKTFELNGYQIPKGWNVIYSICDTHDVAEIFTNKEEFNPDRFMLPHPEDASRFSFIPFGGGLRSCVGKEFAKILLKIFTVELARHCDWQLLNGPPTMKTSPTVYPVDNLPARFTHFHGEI", "test": "P450RAI-1 cell-based inhibitor assay (intact HeLa)", "conditions": "P450RAI-1 stably transfected HeLa cells, [3H]-RA, 3 hours at 37° C.; inhibition of all-trans-RA metabolism by 50 percent", "data": [{"substance": "4-(4-Imidazol-1-yl-methyl-3-methyl-phenylethynyl)-benzoic acid [Compound 119]", "values": [{"measurement": "IC50", "result": 400, "unit": "nM"}]}, {"substance": "[4-(4-Imidazol-1-yl-methyl-3-isopropyl-phenylethynyl)-phenyl]-acetic acid [Compound 127]", "values": [{"measurement": "IC50", "result": 400, "unit": "nM"}]}]}
